Values quoted from earlier work as cited in patent publication US20210346497A1, “Methods of Treating Cancer” (Tesaro, Inc., priority 2018, published 2021).

System: Ewing's sarcoma, ALL, NSCLC, SCLC cell lines and tumor cell lines with homozygous inactivation of the ATM gene
Conditions: selected Ewing's sarcoma, ATM-inactivated tumor cell lines

Question: Which cytotoxicity does the source give for Cc1ccc(S(=O)(=O)O)cc1.NC(=O)c1cccc2cn(-c3ccc([C@@H]4CCCNC4)cc3)nc12 [Niraparib, (3S)-3-[4-{7-(aminocarbonyl)-2H-indazol-2-yl}phenyl]piperidine] here?
Answer: The cytotoxicity was “selectively cytotoxic”.
